From PubChem BioAssay
Hits are enriched below; roughly 1.7% of the tested compounds scored in any of these assays.
GLP-1R inv ag – GLP-1 receptor (human) inverse agonism; HEK293 GLP-1R CRE-luciferase, luminescence, 24 h; GLP-1R form is constitutively active; Potency, µM (titrated, usually from 38.3 µM), hits mostly inhibitors; 1.6% of 410,000 active; AID 624417; further: nearly all actives have a fitted effect of over 55% in size
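Seeding at 200 cells/uL, 12 h culture, 24 hr compound treatment, then luciferase reagent and a luminescence read; cells are HEK293 stably expressing a constitutively active GLP-1R plus cAMP-responsive luciferase.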
miR-21 reporter – raises the signal of a miR-21 reporter | HeLa miR-21 FLuc reporter, luciferase, 48 h | Potency, µM (highest dose often 38.3 µM) | 340,000 tested, under 10 active | AID 2288; active = well fitted rising curve with a large enough effect; inconclusive = small, poorly fitted or top-dose-only effect; inactive = no such curve, though single readings can be large or run the other way;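 also: miR-21 action dims this reporter so a rising signal means less miR-21 action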
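Using DMEM plus 10% FBS, HeLa miR-21-FLuc cells are incubated with test compounds (final up to about 40uM) for 48 hours; firefly luciferase signal is then imaged following reagent-mediated lysis.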
PTHR1 agonist – activates the human parathyroid hormone receptor PTHR1; HEK293 GP2 PTHR1 cells, GloSensor cAMP luminescence, 1 h; Q03431; 0.075% of 410,000 active; Potency, µM (top dose mostly 115 µM), actives largely listed as activators; AID 743266; further: nearly all actives have a fitted effect of over 55% in size
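HEK-293-derived GP2 cells expressing PTHR1 and a GloSensor cAMP reporter, 3,000/well, plated overnight, given luciferin plus IBMX (each 0.5 mM as added) for 1 h at 37 °C, then compound for 1 h at 37 °C. Luminescence was read after 15 min at room temperature.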
GLP1R cytotox – cytotoxicity in counter-screen for GLP-1R inverse agonists | HEK293 cAMP-luciferase reporter cells, luminescence, 24 h | Potency, µM (highest dose often 38.3 µM), most hits filed as inhibitors | 0.13% of 410,000 active | AID 624418;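 further: loss of luciferase light is scored as toxicity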
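A 23 nL compound transfer followed 12 hours of cell culture at 37 deg C; exposure then lasted 24 hr. Luciferase assay detection reagent was dispensed and plates read for luminescence after a 12 min room-temperature wait.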
GLP-1R agonist – agonists of human GLP-1 receptor; P43220; HEK293 GLP-1R CRE-luciferase, luminescence, 4-6 h; cells express a hypersensitive GLP-1R form; Potency, µM (titrated, usually from 45.6 µM), most hits filed as activators; 0.007% of 380,000 active; AID 624172
Pin1 inhibitor – human Pin1 inhibition; Q13526; Pin1 FP peptide displacement, HiFluor488, 10 min; Potency, µM (highest dose often 115 µM), most hits filed as inhibitors; 0.009% of 390,000 active; AID 504891; active means well fitted inhibition curve with a large enough effect in the polarisation, with a control signal flat, not every such curve was filed as active; inconclusive means small, poorly fitted or top-dose-only effect, or effect the other way, or a change in a side signal; inactive means no such curve, though single readings can be large or run the other way; the % refers to the polarisation
Large screens that a line does not name were inactive. Unless noted, the call rests on the fitted dose curve; in most records, active means well fitted curve in the direction sought with a large enough effect; inconclusive means small, poorly fitted or top-dose-only effect, or another doubt; inactive means no such curve, though single readings can be large; an effect the other way counts as inactive or inconclusive.

CCN(CC)S(=O)(=O)c1cccc(NC(=O)CCNC(=O)NC23CC4CC(CC(C4)C2)C3)c1	GLP-1R inv ag 10µM (no result: miR-21 reporter)
CCN(CC)S(=O)(=O)c1cccc(NC(=O)CCNC(=O)c2ccc([N+](=O)[O-])cc2)c1	PTHR1 agonist inconclusive
CN(C)S(=O)(=O)c1cccc(NC(=S)NC23CC4CC(CC(C4)C2)C3)c1	GLP-1R inv ag 7.94µM
Cc1onc(-c2ccccc2Cl)c1C(=O)OCC(=O)N1CCCc2ccccc21	GLP-1R inv ag 10µM
Cc1onc(-c2ccccc2Cl)c1C(=O)N1CCCc2ccccc21	none
Cc1ccc(C2CC(c3ccc(Br)cc3)=NN2C(=O)CSC2=NN3CCCC(=O)N=C3S2)cc1 (stereo not given)	GLP-1R inv ag 4.47µM
O=C(Nc1ccn(Cc2ccccc2F)n1)c1ccc(COc2cccc(Br)c2)cc1	GLP-1R inv ag 3.16µM
O=C(Nc1ccn(Cc2ccccc2F)n1)c1ccc(COc2ccccc2Cl)cc1	GLP-1R inv ag inconclusive
Cc1ccc(C2CC(=O)NC(SCc3ccccc3)=C2C#N)cc1 (stereo not given)	GLP-1R inv ag 8.91µM
COc1ccccc1CNC(=O)CCCn1c(=O)c2cccn2c2ccccc21	none (no result: GLP-1R agonist)
COC(=O)c1nn(-c2ccccc2)c(Cl)c1/C=N/OCc1ccc(C)cc1	GLP-1R inv ag 12.6µM
CC1Nc2ncnc(N3CCN(c4ccccc4)CC3)c2N(Cc2ccccc2)C1=O (stereo not given)	none (no result: miR-21 reporter)
O=C1C(Cc2ccccc2)Nc2ncnc(N3CCN(c4ccccc4)CC3)c2N1Cc1ccc(Cl)cc1 (stereo not given)	GLP-1R inv ag 11.2µM (no result: miR-21 reporter)
O=C1C(Cc2ccccc2)Nc2ncnc(N3CCCCC3)c2N1Cc1ccc(Cl)cc1 (stereo not given)	GLP-1R inv ag 12.6µM (no result: miR-21 reporter)
CC1Nc2ncnc(N3CCN(c4ccccc4)CC3)c2N(Cc2ccc(Cl)cc2)C1=O (stereo not given)	GLP-1R inv ag 10µM (no result: miR-21 reporter)
Clc1ccc(Cn2c3c(c4ccccc42)CCc2cc4ccccc4nc2-3)cc1	none (no result: GLP-1R inv ag, miR-21 reporter, PTHR1 agonist, GLP1R cytotox, GLP-1R agonist)
CO[C@@]1(NC(=O)CSC(F)F)C(=O)N2C(C(=O)O)=C(CSc3nnnn3CCO)CO[C@@H]21	none (no result: GLP-1R inv ag, miR-21 reporter, PTHR1 agonist, GLP1R cytotox, Pin1 inhibitor)
Oc1ccc(Cl)c2cccnc12	GLP-1R inv ag 10µM (no result: miR-21 reporter)
Oc1ccc(CCc2ccccc2F)c2cccnc12	none (no result: GLP-1R inv ag, miR-21 reporter, PTHR1 agonist, GLP1R cytotox, GLP-1R agonist)
Oc1ccc(Cc2ccccc2)c2cccnc12	GLP-1R inv ag 6.31µM (no result: miR-21 reporter)
O=C(Oc1ccc(Cl)c2cccnc12)c1cccnc1	GLP-1R inv ag 3.16µM, GLP1R cytotox inconclusive
OCc1ccc(O)c2ncccc12	GLP-1R inv ag 10µM, GLP1R cytotox inconclusive, Pin1 inhibitor inconclusive
O=C(NCCc1ccccc1)C1CCN(c2nc(-c3ccc(Br)cc3)cs2)CC1	none (no result: GLP-1R inv ag, miR-21 reporter, PTHR1 agonist, GLP1R cytotox, GLP-1R agonist)
Cn1cnc2c(=O)oc3ccc(S(=O)(=O)N4CCN(c5cccc(C(F)(F)F)c5)CC4)cc3c21	PTHR1 agonist inconclusive (no result: GLP-1R agonist)
N#Cc1ccc(C(=O)NCC(=O)OC(C(=O)Nc2cc(C(F)(F)F)ccc2Cl)c2ccccc2)cc1 (stereo not given)	none (no result: GLP-1R inv ag, miR-21 reporter, PTHR1 agonist, GLP1R cytotox, GLP-1R agonist)
Cc1ccc(Cn2c(=O)c3ccccc3n3c(-c4ccccc4)nnc23)cc1	none (no result: GLP-1R agonist)
Oc1ccc(COCc2ccccc2)c2cccnc12	GLP-1R inv ag 10µM
CCCOCc1ccc(O)c2ncccc12	GLP-1R inv ag inconclusive
Oc1ccc(CN2CCCCC2)c2cccnc12	miR-21 reporter inconclusive, GLP1R cytotox inconclusive
CC(C)COCc1ccc(O)c2ncccc12	GLP-1R inv ag 3.98µM, miR-21 reporter inconclusive, GLP1R cytotox inconclusive
CCOC(=O)N1CCN(Cc2ccc(O)c3ncccc23)CC1	GLP-1R inv ag 5.01µM
CC(=O)N[C@H]1[C@H](O[C@@H]2c3ccc(c(Cl)c3)Oc3cc4cc(c3O[C@@H]3O[C@H](CO)[C@@H](O)[C@H](O)C3C)Oc3ccc(cc3Cl)C[C@H]3NC(=O)[C@@H](N)c5ccc(O)c(c5)Oc5cc(O)cc(c5)[C@H](NC3=O)C(=O)N[C@H]4C(=O)N[C@H]3C(=O)N[C@@H]2C(=O)N[C@@H](C(=O)O)c2cc(O)cc(O[C@H]4O[C@H](CO)[C@@H](O)C(O)[C@@H]4O)c2-c2cc3ccc2O)O[C@H](CO)[C@@H](O)[C@@H]1O (stereo not given in full)	none (no result: GLP-1R inv ag, miR-21 reporter, PTHR1 agonist, GLP1R cytotox, Pin1 inhibitor)
O=S(=O)(NC1CCCC(NS(=O)(=O)c2c(F)cccc2F)C1)c1ccc2c(c1)OCCO2 (stereo not given)	none (no result: GLP-1R inv ag, miR-21 reporter, PTHR1 agonist, GLP1R cytotox, GLP-1R agonist)
Cc1onc(-c2ccccc2Cl)c1C(=O)Oc1cccc2cccnc12	GLP-1R inv ag 12.6µM, GLP1R cytotox inconclusive
CCc1ccc(NC(=S)NC(=O)c2c(-c3ccccc3Cl)noc2C)cc1	GLP-1R inv ag 10µM, Pin1 inhibitor inconclusive
COc1ccc(N2CCN(CCCNC(=O)c3c(C)nn(-c4ccc(F)cc4)c3-n3cccc3)CC2)cc1	none
CCOC(=O)N/N=C/c1cn(CCCOc2ccccc2)c2ccccc12	GLP-1R inv ag 8.91µM
COC(=O)N/N=C/c1cn(CC(C)COc2ccccc2)c2ccccc12 (stereo not given)	GLP-1R inv ag 10µM, miR-21 reporter inconclusive, Pin1 inhibitor inconclusive
COc1cccc(C2C(=O)N(C3CCCCC3)CC(=O)N2Cc2ccc(Cl)cc2)c1 (stereo not given)	GLP-1R inv ag inconclusive (no result: GLP-1R agonist)
CCOc1nc(Nc2ccc(F)cc2)nc(N2CCN(c3ccc(OC)cc3)CC2)n1	GLP-1R inv ag inconclusive
CCOc1nc(Nc2ccc(OC)c(Cl)c2)nc(N2CCN(c3ccc(OC)cc3)CC2)n1	GLP-1R inv ag 4.47µM
CC(c1nc2ccccc2n1Cc1ccccc1)N1CCCCC1 (stereo not given)	GLP-1R inv ag 1.26µM, GLP1R cytotox inconclusive
Cc1nc2ccccc2n1Cc1ccccc1	none
C=CCN1CC(C(=O)N(CCCN(C)C)C(=O)NCC)CC2c3cccc4[nH]cc(c34)CC21 (stereo not given)	none (no result: GLP-1R inv ag, miR-21 reporter, PTHR1 agonist, GLP1R cytotox, Pin1 inhibitor)
CCOC(=O)C1=C(C)NC(C)=C(C(=O)OCC)C1C(=O)OCC(=O)N1c2ccccc2CC1C (stereo not given)	GLP-1R inv ag inconclusive
CCOC(=O)c1c(C)[nH]c(C(=O)OCC(=O)N2c3ccccc3CC2C)c1C (stereo not given)	GLP-1R inv ag 8.91µM
Cc1ccc(-c2onc(C)c2C)cc1S(=O)(=O)N1c2ccccc2CC1C (stereo not given)	GLP-1R inv ag 10µM (no result: GLP-1R agonist)
Cc1ccc(-c2onc(C)c2C)cc1S(=O)(=O)N1CCOc2ccccc21	GLP-1R inv ag inconclusive
